Data published in PMC11507932, “Comparative Analysis on Polyphenolic Composition of Different Olive Mill Wastewater and Related Extra Virgin Olive Oil Extracts and Evaluation of Nutraceutical Properties by Cell-Based Studies” (Foods, 2024).
“And” between values parts separate entries of the source, which are not always exact repeats. Identical values can stand only once.

Tested on: co-culture of Caco-2 and HT29-MTX cell lines
Assay: Intestinal permeability assay, Caco-2/HT29-MTX co-culture, LC-MS quantification
Assay type: in vitro ADME, human

For Pinoresinol, the “calculated concentration, basolateral side” value (OMWW B1 sample, 30 min, mean ± SD (n = 3)) was 3,83 ± 0,06 ng/mL, the “calculated concentration, basolateral side” value (OMWW B1 sample, 60 min, mean ± SD (n = 3)) was 4,74 ± 0,21 ng/mL and the “calculated concentration, basolateral side” value (OMWW B1 sample, 120 min, mean ± SD (n = 3)) was 6,33 ± 0,18 ng/mL. For the same substance, the “calculated concentration, basolateral side” value (OMWW B1 sample, 180 min, mean ± SD (n = 3)) was 6,44 ± 2,76 ng/mL, the “calculated concentration, basolateral side” value (OMWW B1 sample, 240 min, mean ± SD (n = 3)) was 8,57 ± 0,06 ng/mL and the “calculated concentration, apical side” value (OMWW B1 sample, apical (100% reference), mean ± SD (n = 3)) was 20,00 ± 5,37 ng/mL. The “Mean Permeation Rate (±SD) at 240 min” value (polyphenol within OMWW B1 sample (500 µg/mL), apical to basolateral, 240 min) was 44% and 44 ± 12%.
